## Yeast mating assay 2: variants of the scFv Ab-95

Target peptide (SARS-CoV-2 spike, HR2 region): PDVDLGDISGINAS

Ab-95 is the parent antibody, in scFv form: VH, then three GGGGS repeats, then VL. The heavy chain is unchanged in all variants.
VH: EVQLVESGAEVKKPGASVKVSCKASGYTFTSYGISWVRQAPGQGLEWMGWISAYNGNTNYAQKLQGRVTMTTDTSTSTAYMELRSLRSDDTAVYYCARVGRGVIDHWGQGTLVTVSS
VL: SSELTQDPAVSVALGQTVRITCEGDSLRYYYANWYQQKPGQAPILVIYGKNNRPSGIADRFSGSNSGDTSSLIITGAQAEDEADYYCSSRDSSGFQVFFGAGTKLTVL

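The library (AAYL52) carries one to three amino acid substitutions per variant, with no insertions or deletions. Affinity was read by AlphaSeq, a pooled yeast mating assay with surface-displayed partners. After mating in shaken culture at 30 °C for 16 h, diploids were selected and their barcode pairs sequenced. The ratio of observed to expected reads was calibrated, replicate by replicate, on BCL2-family standards whose Kd was known from biolayer interferometry. Mating was done three times.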

Variants are written as CDR1, CDR2 and CDR3 of the light chain (limits as in the source). Parent: EGDSLRYYYAN, GKNNRPS, SSRDSSGFQVF.
Numbers give log10(Kd / nM), so 0 is 1 nM and 3 is 1 µM. Smaller is tighter.
Averages over replicates are reported, and they cover detected replicates only.
An entry "not detected" has no value in the source: the pair was not observed among the diploids in any replicate. This suggests poor binding but is not conclusive.

CDR-L1 | CDR-L2 | CDR-L3 | mean log10 Kd (nM) | detected | control signals
SGDSLRYYYAN | GKNMRTS | SSRDSSGFQVF | 2.02 | 3 of 3 | 1 of 9
EGDSLRYYLAN | GKNNRPS | SSPDSSGFQVV | not detected | 0 of 3 | 3 of 9
EGFSLRYYYAN | GKNPRPS | SSPDSSGFQVF | 3.98 | 1 of 3 | 3 of 9
EGDSLRYYYAN | GKNNRPG | SERDSSGFQVF | 2.60 | 3 of 3 | 2 of 9
EGYSLRYYYAY | GKNNRPS | SSRDSWGFQVF | 4.46 | 2 of 3 | 6 of 9
EGDSLRYYYAN | GCNNDPS | SSRDSSGFQVF | 3.91 | 1 of 3 | 2 of 9
EGDSLWYYYSN | GKNNRPS | SSRDSSGFQVF | 3.27 | 3 of 3 | 4 of 9
EGDQLRYYYAN | GKSNRPS | SSRDSSGFQNF | 4.05 | 2 of 3 | 3 of 9
EGDSLRYYYAN | GKNNRPD | SSRDLSGFWVF | not detected | 0 of 3 | 0 of 9
EGDRLRYYYAN | GKNNRPS | SSWDSSGFQVF | 3.02 | 1 of 3 | 3 of 9
EGDSARYYYAN | GKNNRPS | SSRDESGFQLF | 4.29 | 2 of 3 | 3 of 9
EGDSLKYVYAN | GKNNRPS | ISRDSSGFQVF | 2.86 | 3 of 3 | 2 of 9
EGCGLCYYYAN | GKNNRPS | SSRDSSGFQVF | 2.51 | 3 of 3 | 4 of 9
EHDSLRYYYAN | GKNNRRS | SSRRSSGFQVF | 4.03 | 3 of 3 | 3 of 9
EGDSLRYYYAN | GKNNCPS | ASRDSSGAQVF | 3.32 | 3 of 3 | 1 of 9
EGDDLRYYYAN | GKNNRPS | SSRDSSTFQYF | 4.45 | 2 of 3 | 1 of 9
EGDSVRYYYAN | GKNNLPS | SSRDSSGFNVF | 3.35 | 1 of 3 | 0 of 9
EGDSLRYWYAN | GLNNRPS | SSRDSSGFQVE | 3.68 | 2 of 3 | 1 of 9
EGDSLRYYYAN | GKNNRPT | KSRDSSGFHVF | 3.80 | 2 of 3 | 3 of 9
EGDSAYYYYAN | GKNNRPS | SSRDSSGFQVD | 3.88 | 2 of 3 | 4 of 9
EGDSVRYYYAN | GKNNRYS | SSRDSSGFQVH | 3.93 | 1 of 3 | 1 of 9
EGDSLRYYYAW | GKNNRPP | SSRDSSGFQVF | 3.54 | 1 of 3 | 5 of 9
EQDSLRYTYAN | GKNNRPS | SSRDSSGFQDF | 3.55 | 2 of 3 | 0 of 9
EMDSLRYYYAN | GKNNRPS | SSRGSSCFQVF | 4.19 | 1 of 3 | 1 of 9
EGDSLRYYYAN | GKNERPS | SSRDSSRIQVF | 2.40 | 3 of 3 | 1 of 9
EGDSLVYYYAN | GKNNRPS | SSRDTSGFQVF | 3.07 | 2 of 3 | 5 of 9
EEDSLRYYYAN | GKNNRPD | SSRDSSGFDVF | 4.01 | 2 of 3 | 1 of 9
ESDSLRQYYAN | GKNNRPS | SSTDSSGFQVF | 3.40 | 3 of 3 | 1 of 9

Second part, the sequence after the result:

mean log10 Kd (nM) | detected | control signals | CDR-L1 | CDR-L2 | CDR-L3
4.50 | 1 of 3 | 2 of 9 | EGDSLRYYYAN | HKNNRPS | SSRDSSGFQRY
2.95 | 2 of 3 | 0 of 9 | WGDSLRYYYAN | GKENRPS | SSRDSSGVQVF
4.25 | 1 of 3 | 2 of 9 | EGDCLRYYYAN | HKLNRPS | SSRDSSGFQVF
2.13 | 3 of 3 | 0 of 9 | EGDSLGYYYAN | GKNNRPS | SSRITSGFQVF
4.42 | 1 of 3 | 2 of 9 | EGDSWRYYYAE | GKNNRCS | SSRDSSGFQVF
3.20 | 2 of 3 | 3 of 9 | EGDSLRYYYAN | SKNNRPS | SSRDSMGFQVF
3.47 | 3 of 3 | 5 of 9 | EGDSLRYYYAN | GKNNRPS | SMRDMSPFQVF
not detected | 0 of 3 | 2 of 9 | EGDSLVYYYAN | GKNNRPG | SSRDSSGFQVF
4.02 | 3 of 3 | 2 of 9 | EGDSLRLYFAT | GKNNRPS | SSRDSSGFQVF
3.97 | 1 of 3 | 4 of 9 | EGDSLRYYVAN | GKSNRPS | LSRDSSGFQVF
not detected | 0 of 3 | 0 of 9 | EGDSLRYYYAN | GWTNKPS | SSRDSSGFQVF
3.02 | 2 of 3 | 2 of 9 | EGDWLRYYYAN | GKNNRPS | SSRDCSGFHVF
4.94 | 2 of 3 | 0 of 9 | EGDSLRYYYAQ | GKNNFPS | NSRDSSGFQVF
not detected | 0 of 3 | 3 of 9 | EGDTLRYYYIN | GKNNRPS | SSRDSSGFGVF
4.10 | 1 of 3 | 1 of 9 | EGDSLRYYYAN | GKNIRPS | SSRDSLDFQVF
4.19 | 1 of 3 | 2 of 9 | EGDFLRYYYAN | GKSNRPS | SSRDSSGMQVF
5.51 | 1 of 3 | 3 of 9 | KGDSLRYYYAN | WKNNRPS | SSRDSSGFQHF
4.85 | 1 of 3 | 5 of 9 | EGDSSRYYYAN | GKNARPS | SSRDSSGFQHF
2.81 | 3 of 3 | 3 of 9 | EGDSLFQYYAN | GKNNRPP | SSRDSSGFQVF
4.13 | 2 of 3 | 4 of 9 | EGDSLRYYYAE | GKENRMS | SSRDSSGFQVF
2.85 | 3 of 3 | 4 of 9 | EGDSLRYYYAN | GENNRPS | SSRDSSGFRVL
4.41 | 1 of 3 | 4 of 9 | EGDSMRYYYRN | GKNNRPS | SMRDSSGFQVF
3.28 | 3 of 3 | 1 of 9 | EGLSLRYYYAN | GKNNRPS | SSSDSNGFQVF
2.75 | 3 of 3 | 2 of 9 | ESDSLRYYYAN | GKNNRPS | SSRDSSYFQVF
3.91 | 2 of 3 | 3 of 9 | YGDSLRYYYAN | GVNNRPS | SFRDSSGFQVF
4.09 | 2 of 3 | 3 of 9 | AGDSLRYHYAN | GKNNRPS | SSNDSSGFQVF
3.75 | 1 of 3 | 3 of 9 | ENDMLRYYYAN | TKNNRPS | SSRDSSGFQVF
3.15 | 3 of 3 | 3 of 9 | EGDSLRYYYAN | GKNNRPS | SSRHSSGFQVI

Extract of 3 entries:

CDR-L1 | CDR-L2 | CDR-L3 | mean log10 Kd (nM) | detected | control signals
ESDSLRQYYAN | GKNNRPS | SSTDSSGFQVF | 3.40 | 3 of 3 | 1 of 9
EGDSLRYYYAN | GCNNDPS | SSRDSSGFQVF | 3.91 | 1 of 3 | 2 of 9
EGDSSRYYYAN | GKNARPS | SSRDSSGFQHF | 4.85 | 1 of 3 | 5 of 9

Background: pairings of library AAYL52 with three empty control strains gave a value in 28% of cases (median 3.91, 5th percentile 2.90). Values in that range, when seen in few replicates, are hard to tell from nonspecific mating. For each scFv, signals with the empty controls are counted beside the result.
Parent in this assay: reference entry 2.31, copy in this library 2.25.

From the AlphaSeq antibody data of Engelhart et al. 2022 (doi:10.1038/s41597-022-01779-4), copy in the FLAb collection.